Measured values reported in PubChem BioAssay AID2797 (The Scripps Research Institute Molecular Screening Center, 2010).
This is a selection; strong and weak results do not stand in their true shares. The source made the active and inactive calls.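 Rule for the calls: active = activation above the mean activation of all tested compounds plus 3 SD, per screening run (cut at about 20% in these data); inactive = the rest.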

By UniProt entry, the sequences of proteins in these tests, tags left out.
UniProt P37288, whole entry: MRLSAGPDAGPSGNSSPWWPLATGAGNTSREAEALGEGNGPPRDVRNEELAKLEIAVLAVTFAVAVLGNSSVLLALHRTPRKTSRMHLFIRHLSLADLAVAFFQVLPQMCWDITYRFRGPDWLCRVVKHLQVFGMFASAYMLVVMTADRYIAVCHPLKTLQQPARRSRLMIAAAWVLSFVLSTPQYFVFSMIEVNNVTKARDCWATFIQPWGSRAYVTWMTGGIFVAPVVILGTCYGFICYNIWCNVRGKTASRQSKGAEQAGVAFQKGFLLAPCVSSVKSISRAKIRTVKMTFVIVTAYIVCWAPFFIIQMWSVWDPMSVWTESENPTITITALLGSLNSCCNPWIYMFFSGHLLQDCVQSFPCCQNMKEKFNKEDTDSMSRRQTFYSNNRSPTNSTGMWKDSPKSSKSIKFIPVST

These molecules were tested against Vasopressin V1a receptor (Homo sapiens) (UniProt P37288) (assay: V1R activation via calcium rise – fluorescence, CHO-V1R cells, counter-screen for OXTR agonist project, primary screen (AID 2797;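 note: signal is peak over basal fluorescence ratio across a 100 second FLIPR read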)). Settings: Fluo-8 calcium fluorescence, agonist mode, at 3 µM, stronger effect = higher value, 0% DMSO, 100% 3 nM vasopressin.

SMILES	activation
CN(C)c1ccc(C(=O)NCC2(N3CCCCC3)CCCCC2)cc1	inactive: 0.78%
O=C(NCC1(N2CCCCC2)CCCCC1)c1ccco1	inactive: -0.61%
CCN1CCC(Nc2cccc(F)c2)CC1	inactive: -0.47%
Fc1ccccc1NC1CCN(Cc2ccccc2)CC1	inactive: 0.44%
Cc1ccc(C(=O)NCC2(N3CCCCC3)CCCCC2)o1	inactive: -0.77%
COc1cc(OC)cc(C(=O)NCC2(N3CCCCC3)CCCCC2)c1	inactive: -0.81%
CN1CCC(Nc2ccc(Cl)cc2)CC1	inactive: 1.8%
CCCOc1ccc(C)cc1CN(CCCl)CCCl	inactive: 0.03%
COc1cc(OC)cc(C(=O)NCC2(N3CCOCC3)CCCCC2)c1	inactive: -0.26%
COc1cccc(C(=O)N(c2cc(C)cc(C)c2)C2CCN(C(=O)OC(C)(C)C)CC2)c1	inactive: -1.16%
CCC(CO)(C(=O)OC1CN2CCC1CC2)c1ccccc1 (stereo not drawn)	inactive: -0.15%
O=C(O)C1(Nc2ccccc2)CCN(Cc2ccccc2)CC1	inactive: 0.04%
CC(C)(C)OC(=O)N1CCC(Nc2ccccc2)CC1	inactive: 1.03%
CCCOc1ccc(C(=O)NCC2(N(C)C)CCCCC2)cc1	inactive: 1.87%
CN1CCC(Nc2ccc(F)c(Cl)c2)CC1	inactive: 0.2%
CCOc1ncccc1C(=O)NCC1(N2CCOCC2)CCCCC1	inactive: -0.3%
CCc1cc(C(=O)NCC2(N3CCCCC3)CCCCC2)sc1C	inactive: -1.16%
O=C(OC1CN2CCC1CC2)C1c2ccccc2C=Cc2ccccc21 (stereo not drawn)	inactive: 1.17%
CCOC(=O)N1CCC(Nc2ccc(C)cc2)CC1	inactive: 1.45%
N/C(=N\O)c1c(N)no[n+]1[O-]	inactive: 0.62%
COc1ccc(C(=O)NCC2(N3CCOCC3)CCCCC2)cc1OC	inactive: 0.22%

SMILES	activation
COc1cc(C(=O)NCC2(N3CCOCC3)CCCCC2)cc(OC)c1C	inactive: -1.06%
O=C(NCC1(N2CCOCC2)CCCCC1)c1cc(Br)ccc1Cl	inactive: -1.85%
CN(C)C1(CNC(=O)c2cccc(C#N)c2)CCCCC1	inactive: 0.54%
CCCN1CCC(Nc2cc(OC)cc(OC)c2)CC1	inactive: 0.29%
c1ccc(CN2CCC(Nc3ccccc3)CC2)cc1	inactive: 0.27%
N#Cc1ccc(C(=O)NCC2(N3CCCCC3)CCCCC2)cc1	inactive: -0.54%
CC(C)(C)OC(=O)N1CCC(N(C(=O)c2ccccc2)c2ccc(Cl)cc2)CC1	inactive: -0.54%
COc1cc(C(=O)NCC2(N3CCCCC3)CCCCC2)ccc1OC(F)F	inactive: 0.21%
O=C(NCC1(N2CCOCC2)CCCCC1)c1cc(=O)[nH]c2ccccc12	inactive: 0.04%
CN1CCN(CCOC(=O)C(O)(c2ccccc2)c2ccccc2)CC1	inactive: 3.36%
COc1ccc(NC2CCN(C(=O)OC(C)(C)C)CC2)cc1	inactive: -0.06%
O=C(NCC1(N2CCCCC2)CCCCC1)c1cccc(C(F)(F)F)c1	inactive: 0.28%
N#CC1(Nc2ccccc2)CCN(CCc2ccccc2)CC1	inactive: 2.24%
CCN1CCC(Nc2ccc(Cl)cc2)CC1	inactive: 1.74%
O=C(NCC1(N2CCCCC2)CCCCC1)c1cccc([N+](=O)[O-])c1	inactive: 0.31%
O=C(NCC1(N2CCCCC2)CCCCC1)c1ccc(OC(F)F)cc1	inactive: 0.01%
CN1CCC(Nc2cccc(F)c2)CC1	inactive: 1.21%
O=C(NCC1(N2CCCCC2)CCCCC1)c1cncc(Br)c1	inactive: -0.9%
O=C(NCC1(N2CCOCC2)CCCCC1)c1cc(F)c(F)cc1Cl	inactive: 0.17%
COc1cc(OC)c(C(=O)NCC2(N(C)C)CCCCC2)cc1OC	inactive: -1.34%
CC(C)c1ccc(NC2CCN(C(=O)OC(C)(C)C)CC2)cc1	inactive: 2.01%

SMILES	activation
CN(C)c1cccc(C(=O)NCC2(N3CCCCC3)CCCCC2)c1	inactive: -0.32%
COc1ccc(CN(CCCl)CCCl)cc1Cl	inactive: -0.71%
COc1ccc(Cl)cc1C(=O)NCC1(N2CCOCC2)CCCCC1	inactive: -1.69%
N#CC1(Nc2ccccc2)CCN(Cc2ccccc2)CC1	inactive: 1.11%
O=C(NCC1(N2CCCCC2)CCCCC1)c1ccc(Cl)s1	inactive: 0.87%
O=C(OC1CN2CCC1CC2)C1c2ccccc2Oc2ccccc21 (stereo not drawn)	inactive: 0.25%
CCOC(=O)N1CCC(Nc2ccc(OC)cc2)CC1	inactive: 4.14%
Cc1cc(C)cc(N(C(=O)c2ccccc2)C2CCN(C(=O)OC(C)(C)C)CC2)c1	inactive: -0.2%
O=C(NCC1(N2CCCCC2)CCCCC1)c1ccc(Cl)nc1	inactive: -0.57%
O=C(NCC1(N2CCOCC2)CCCCC1)c1cc2ccccc2o1	inactive: -1.23%
CSc1ccccc1C(=O)NCC1(N2CCCCC2)CCCCC1	inactive: -0.19%
CC(C)(C)OC(=O)N1CCC(N(C(=O)c2ccccc2)c2ccc(F)cc2)CC1	inactive: -0.17%
COc1ccc(C(=O)NCC2(N3CCCCC3)CCCCC2)c(OC)c1OC	inactive: 0.23%
COc1ccc(C(=O)NCC2(N3CCCCC3)CCCCC2)cc1	inactive: 0.96%
O=C(NCC1(N2CCCCC2)CCCCC1)c1cccs1	inactive: -0.9%
O=C(NCC1(N2CCCCC2)CCCCC1)c1ccc(=O)[nH]c1	inactive: 0.56%
Cc1ccc(OCC(C)C)c(CN(CCCl)CCCl)c1	inactive: 1.66%
CCOC(=O)N1CCC(Nc2cccc(C)c2)CC1	inactive: -0.04%
COc1ccc(NC2CCN(CCc3ccccc3)CC2)c(OC)c1	inactive: 0.92%
O=C(NCC1(N2CCCCC2)CCCCC1)c1ccc(F)cc1	inactive: 0.33%
CCOc1ccc(C)cc1CN(CCCl)CCCl	inactive: 2.88%
